US6610824B2 (Amylin Pharmaceuticals, Inc., priority 1991, dated 2003)

The compounds below were run against T1, amylin receptors (Rattus norvegicus, UniProt P32214) (assay: Receptor binding assay (125I-rat amylin competition, rat basal forebrain membranes)). Conditions: competition with 125I-rat amylin at 12-16 pM.
T1 construct: This basal forebrain tissue, containing the nucleus accumbens and surrounding regions, was weighed and homogenized; from tissue; host or cells: rat basal forebrain (nucleus accumbens and surrounding regions) membranes
T1 sequence (P32214 25-516): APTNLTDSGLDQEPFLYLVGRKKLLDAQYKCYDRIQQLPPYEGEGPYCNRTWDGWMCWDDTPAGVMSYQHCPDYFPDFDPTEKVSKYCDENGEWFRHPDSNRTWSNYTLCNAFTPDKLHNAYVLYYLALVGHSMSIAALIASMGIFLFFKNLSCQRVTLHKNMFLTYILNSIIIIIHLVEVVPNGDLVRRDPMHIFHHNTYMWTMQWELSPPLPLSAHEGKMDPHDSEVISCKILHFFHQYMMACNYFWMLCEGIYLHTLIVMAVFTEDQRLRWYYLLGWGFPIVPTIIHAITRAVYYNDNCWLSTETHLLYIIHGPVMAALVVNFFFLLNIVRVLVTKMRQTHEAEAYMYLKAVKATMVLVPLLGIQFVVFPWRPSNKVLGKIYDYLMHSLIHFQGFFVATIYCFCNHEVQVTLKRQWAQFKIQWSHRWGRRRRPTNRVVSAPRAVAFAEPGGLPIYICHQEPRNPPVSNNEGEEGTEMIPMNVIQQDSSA
T1 sequence (Q9JJ74 27-148 partner): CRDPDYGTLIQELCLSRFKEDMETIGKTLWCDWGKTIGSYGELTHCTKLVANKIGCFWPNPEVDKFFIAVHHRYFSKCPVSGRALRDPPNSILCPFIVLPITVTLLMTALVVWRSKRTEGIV
Text: Unlabeled peptides were obtained from BACHEM Inc. (Torrance, Calif.) and Peninsula Laboratories (Belmont, Calif.).
Male Sprague-Dawley rats (200-250) grams were sacrificed by decapitation. Brains were removed to cold phosphate-buffered saline (PBS). From the ventral surface, cuts were made rostral to the hypothalamus, bounded laterally by the olfactory tracts and extending at a 45Ε angle medially from these tracts. This basal forebrain tissue, containing the nucleus accumbens and surrounding regions, was weighed and homogenized in ice-cold 20 mM HEPES buffer (20 mM HEPES acid, pH adjusted to 7.4 with NaOH at 23ΕC). […] The final membrane pellet was resuspended in 20 mM HEPES buffer containing 0.2 mM phenylmethylsulfonyl fluoride (PMSF).
Solutions were incubated for 60 minutes at 2ΕC. […] Filters were washed immediately before filtration with 5 ml cold PBS, and immediately after filtration with 15 ml cold PBS.

Row | SMILES | IC50
1 | CC[C@H](C)[C@H](NC(=O)[C@H](C)NC(=O)CNC(=O)[C@H](Cc1ccccc1)NC(=O)[C@H](CC(N)=O)NC(=O)[C@H](CC(N)=O)NC(=O)[C@H](CO)NC(=O)[C@H](CO)NC(=O)[C@H](Cc1c[nH]cn1)NC(=O)[C@@H](NC(=O)[C@H](CC(C)C)NC(=O)[C@H](Cc1ccccc1)NC(=O)[C@H](CC(N)=O)NC(=O)[C@H](C)NC(=O)[C@H](CC(C)C)NC(=O)[C@H](CCCNC(=N)N)NC(=O)[C@H](CCC(N)=O)NC(=O)[C@@H](NC(=O)[C@H](C)NC(=O)[C@@H]1CSSC[C@H](NC(=O)[C@@H](N)CCCCN)C(=O)N[C@@H](CC(N)=O)C(=O)N[C@@H]([C@@H](C)O)C(=O)N[C@@H](C)C(=O)N[C@@H]([C@@H](C)O)C(=O)N1)[C@@H](C)O)C(C)C)C(=O)N[C@@H](CC(C)C)C(=O)N1CCC[C@H]1C(=O)N[C@@H](CO)C(=O)N[C@H](C(=O)N[C@@H](CC(N)=O)C(=O)N[C@H](C(=O)NCC(=O)N[C@@H](CO)C(=O)N[C@@H](CC(N)=O)C(=O)N[C@H](C(=O)N[C@@H](Cc1ccc(O)cc1)C(N)=O)[C@@H](C)O)C(C)C)[C@@H](C)O [Example 1, ^28Pro-human-Amylin] | 0.015 nM
2 | CC[C@H](C)[C@H](NC(=O)[C@H](C)NC(=O)CNC(=O)[C@H](Cc1ccccc1)NC(=O)[C@H](CC(N)=O)NC(=O)[C@H](CC(N)=O)NC(=O)[C@H](CO)NC(=O)[C@H](CO)NC(=O)[C@H](Cc1c[nH]cn1)NC(=O)[C@@H](NC(=O)[C@H](CC(C)C)NC(=O)[C@H](Cc1ccccc1)NC(=O)[C@H](CC(N)=O)NC(=O)[C@H](C)NC(=O)[C@H](CC(C)C)NC(=O)[C@H](CCCNC(=N)N)NC(=O)[C@H](CCC(N)=O)NC(=O)[C@@H](NC(=O)[C@H](C)NC(=O)[C@@H]1CSSC[C@H](NC(=O)[C@H](C)N)C(=O)N[C@@H](CC(N)=O)C(=O)N[C@@H]([C@@H](C)O)C(=O)N[C@@H](C)C(=O)N[C@@H]([C@@H](C)O)C(=O)N1)[C@@H](C)O)C(C)C)C(=O)N[C@@H](CC(C)C)C(=O)N[C@@H](CO)C(=O)N[C@@H](CO)C(=O)N[C@H](C(=O)N[C@@H](CC(N)=O)C(=O)N[C@H](C(=O)NCC(=O)N[C@@H](CO)C(=O)N[C@@H](CC(N)=O)C(=O)N[C@H](C(=O)N[C@@H](Cc1ccc(O)cc1)C(N)=O)[C@@H](C)O)C(C)C)[C@@H](C)O [Example 5, ^1Ala-h-Amylin] | 0.148 nM
3 | CC[C@H](C)[C@H](NC(=O)[C@H](C)NC(=O)CNC(=O)[C@H](Cc1ccccc1)NC(=O)[C@H](CC(N)=O)NC(=O)[C@H](CC(N)=O)NC(=O)[C@H](CO)NC(=O)[C@H](CO)NC(=O)[C@H](Cc1c[nH]cn1)NC(=O)[C@@H](NC(=O)[C@H](CC(C)C)NC(=O)[C@H](Cc1ccccc1)NC(=O)[C@H](CC(N)=O)NC(=O)[C@H](C)NC(=O)[C@H](CC(C)C)NC(=O)[C@H](CCCNC(=N)N)NC(=O)[C@H](CCC(N)=O)NC(=O)[C@@H](NC(=O)[C@H](C)NC(=O)[C@@H]1CSSC[C@H](NC(=O)[C@@H](N)CO)C(=O)N[C@@H](CC(N)=O)C(=O)N[C@@H]([C@@H](C)O)C(=O)N[C@@H](C)C(=O)N[C@@H]([C@@H](C)O)C(=O)N1)[C@@H](C)O)C(C)C)C(=O)N[C@@H](CC(C)C)C(=O)N[C@@H](CO)C(=O)N[C@@H](CO)C(=O)N[C@H](C(=O)N[C@@H](CC(N)=O)C(=O)N[C@H](C(=O)NCC(=O)N[C@@H](CO)C(=O)N[C@@H](CC(N)=O)C(=O)N[C@H](C(=O)N[C@@H](Cc1ccc(O)cc1)C(N)=O)[C@@H](C)O)C(C)C)[C@@H](C)O [Example 6, ^1Ser-h-Amylin] | 0.033 nM
4 | CC[C@H](C)[C@H](NC(=O)[C@H](C)NC(=O)CNC(=O)[C@H](Cc1ccccc1)NC(=O)[C@H](CC(N)=O)NC(=O)[C@H](CC(N)=O)NC(=O)[C@H](CO)NC(=O)[C@H](CO)NC(=O)[C@H](Cc1c[nH]cn1)NC(=O)[C@@H](NC(=O)[C@H](CC(C)C)NC(=O)[C@H](Cc1ccccc1)NC(=O)[C@H](CC(N)=O)NC(=O)[C@H](C)NC(=O)[C@H](CC(C)C)NC(=O)[C@H](CCCNC(=N)N)NC(=O)[C@H](CCC(N)=O)NC(=O)[C@@H](NC(=O)[C@H](C)NC(=O)[C@@H]1CSSC[C@H](NC(=O)[C@@H](N)CCCCN)C(=O)N[C@@H](CC(N)=O)C(=O)N[C@@H]([C@@H](C)O)C(=O)N[C@@H](C)C(=O)N[C@@H]([C@@H](C)O)C(=O)N1)[C@@H](C)O)C(C)C)C(=O)N[C@@H](CC(C)C)C(=O)N[C@@H](CO)C(=O)N1CCC[C@H]1C(=O)N[C@H](C(=O)N[C@@H](CC(N)=O)C(=O)N[C@H](C(=O)NCC(=O)N[C@@H](CO)C(=O)N[C@@H](CC(N)=O)C(=O)N[C@H](C(=O)N[C@@H](Cc1ccc(O)cc1)C(N)=O)[C@@H](C)O)C(C)C)[C@@H](C)O [Example 7, ^29Pro-h-Amylin] | 0.064 nM
5 | CC[C@H](C)[C@H](NC(=O)[C@@H]1CCCN1C(=O)CNC(=O)[C@H](Cc1ccccc1)NC(=O)[C@H](CC(N)=O)NC(=O)[C@H](CC(N)=O)NC(=O)[C@H](CO)NC(=O)[C@H](CO)NC(=O)[C@H](Cc1c[nH]cn1)NC(=O)[C@@H](NC(=O)[C@H](CC(C)C)NC(=O)[C@H](Cc1ccccc1)NC(=O)[C@H](CC(N)=O)NC(=O)[C@H](C)NC(=O)[C@H](CC(C)C)NC(=O)[C@H](CCCNC(=N)N)NC(=O)[C@H](CCC(N)=O)NC(=O)[C@@H](NC(=O)[C@H](C)NC(=O)[C@@H]1CSSC[C@H](NC(=O)[C@@H](N)CCCCN)C(=O)N[C@@H](CC(N)=O)C(=O)N[C@@H]([C@@H](C)O)C(=O)N[C@@H](C)C(=O)N[C@@H]([C@@H](C)O)C(=O)N1)[C@@H](C)O)C(C)C)C(=O)N[C@@H](CC(C)C)C(=O)N1CCC[C@H]1C(=O)N[C@@H](CO)C(=O)N[C@H](C(=O)N[C@@H](CC(N)=O)C(=O)N[C@H](C(=O)NCC(=O)N[C@@H](CO)C(=O)N[C@@H](CC(N)=O)C(=O)N[C@H](C(=O)N[C@@H](Cc1ccc(O)cc1)C(N)=O)[C@@H](C)O)C(C)C)[C@@H](C)O [Example 8, ^25, 28Pro-h-Amylin] | 0.026 nM
6 | CC[C@H](C)[C@H](NC(=O)[C@@H]1CCCN1C(=O)CNC(=O)[C@H](Cc1ccccc1)NC(=O)[C@H](CC(N)=O)NC(=O)[C@H](CC(N)=O)NC(=O)[C@H](CO)NC(=O)[C@H](CO)NC(=O)[C@H](Cc1c[nH]cn1)NC(=O)[C@@H](NC(=O)[C@H](CC(C)C)NC(=O)[C@H](Cc1ccccc1)NC(=O)[C@H](CC(N)=O)NC(=O)[C@H](C)NC(=O)[C@H](CC(C)C)NC(=O)[C@H](CCCNC(=N)N)NC(=O)[C@H](CCC(N)=O)NC(=O)[C@@H](NC(=O)[C@H](C)NC(=O)[C@@H]1CSSC[C@H](N)C(=O)N[C@@H](CC(N)=O)C(=O)N[C@@H]([C@@H](C)O)C(=O)N[C@@H](C)C(=O)N[C@@H]([C@@H](C)O)C(=O)N1)[C@@H](C)O)C(C)C)C(=O)N[C@@H](CC(C)C)C(=O)N1CCC[C@H]1C(=O)N[C@@H](CO)C(=O)N[C@H](C(=O)N[C@@H](CC(N)=O)C(=O)N[C@H](C(=O)NCC(=O)N[C@@H](CO)C(=O)N[C@@H](CC(N)=O)C(=O)N[C@H](C(=O)N[C@@H](Cc1ccc(O)cc1)C(N)=O)[C@@H](C)O)C(C)C)[C@@H](C)O [Example 9, des-^1Lys^25, 28Pro-h-Amylin] | 0.085 nM
7 | CC[C@H](C)[C@H](NC(=O)[C@@H]1CCCN1C(=O)CNC(=O)[C@H](Cc1ccccc1)NC(=O)[C@H](CC(N)=O)NC(=O)[C@H](CC(N)=O)NC(=O)[C@H](CO)NC(=O)[C@H](CO)NC(=O)[C@H](CCCNC(=N)N)NC(=O)[C@@H](NC(=O)[C@H](CC(C)C)NC(=O)[C@H](Cc1ccccc1)NC(=O)[C@H](CC(N)=O)NC(=O)[C@H](C)NC(=O)[C@H](CC(C)C)NC(=O)[C@H](CCCNC(=N)N)NC(=O)[C@H](CCC(N)=O)NC(=O)[C@@H](NC(=O)[C@H](C)NC(=O)[C@@H]1CSSC[C@H](NC(=O)[C@@H](N)CCCCN)C(=O)N[C@@H](CC(N)=O)C(=O)N[C@@H]([C@@H](C)O)C(=O)N[C@@H](C)C(=O)N[C@@H]([C@@H](C)O)C(=O)N1)[C@@H](C)O)C(C)C)C(=O)N[C@@H](CC(C)C)C(=O)N1CCC[C@H]1C(=O)N1CCC[C@H]1C(=O)N[C@H](C(=O)N[C@@H](CC(N)=O)C(=O)N[C@H](C(=O)NCC(=O)N[C@@H](CO)C(=O)N[C@@H](CC(N)=O)C(=O)N[C@H](C(=O)N[C@@H](Cc1ccc(O)cc1)C(N)=O)[C@@H](C)O)C(C)C)[C@@H](C)O [Example 12, ^18Arg^25, 28, 29Pro-h-Amylin] | 0.021 nM
